# Experimental data as given in patent US8853394B2, “Pharmacokinetically improved compounds” (Surface Logix, Inc., priority 2006, dated 2014).
# Protein sequences, listed by entry. Tags and fused reporters are not part of them. Residues count along the entry.
# UniProt Q14432, whole entry, looked up: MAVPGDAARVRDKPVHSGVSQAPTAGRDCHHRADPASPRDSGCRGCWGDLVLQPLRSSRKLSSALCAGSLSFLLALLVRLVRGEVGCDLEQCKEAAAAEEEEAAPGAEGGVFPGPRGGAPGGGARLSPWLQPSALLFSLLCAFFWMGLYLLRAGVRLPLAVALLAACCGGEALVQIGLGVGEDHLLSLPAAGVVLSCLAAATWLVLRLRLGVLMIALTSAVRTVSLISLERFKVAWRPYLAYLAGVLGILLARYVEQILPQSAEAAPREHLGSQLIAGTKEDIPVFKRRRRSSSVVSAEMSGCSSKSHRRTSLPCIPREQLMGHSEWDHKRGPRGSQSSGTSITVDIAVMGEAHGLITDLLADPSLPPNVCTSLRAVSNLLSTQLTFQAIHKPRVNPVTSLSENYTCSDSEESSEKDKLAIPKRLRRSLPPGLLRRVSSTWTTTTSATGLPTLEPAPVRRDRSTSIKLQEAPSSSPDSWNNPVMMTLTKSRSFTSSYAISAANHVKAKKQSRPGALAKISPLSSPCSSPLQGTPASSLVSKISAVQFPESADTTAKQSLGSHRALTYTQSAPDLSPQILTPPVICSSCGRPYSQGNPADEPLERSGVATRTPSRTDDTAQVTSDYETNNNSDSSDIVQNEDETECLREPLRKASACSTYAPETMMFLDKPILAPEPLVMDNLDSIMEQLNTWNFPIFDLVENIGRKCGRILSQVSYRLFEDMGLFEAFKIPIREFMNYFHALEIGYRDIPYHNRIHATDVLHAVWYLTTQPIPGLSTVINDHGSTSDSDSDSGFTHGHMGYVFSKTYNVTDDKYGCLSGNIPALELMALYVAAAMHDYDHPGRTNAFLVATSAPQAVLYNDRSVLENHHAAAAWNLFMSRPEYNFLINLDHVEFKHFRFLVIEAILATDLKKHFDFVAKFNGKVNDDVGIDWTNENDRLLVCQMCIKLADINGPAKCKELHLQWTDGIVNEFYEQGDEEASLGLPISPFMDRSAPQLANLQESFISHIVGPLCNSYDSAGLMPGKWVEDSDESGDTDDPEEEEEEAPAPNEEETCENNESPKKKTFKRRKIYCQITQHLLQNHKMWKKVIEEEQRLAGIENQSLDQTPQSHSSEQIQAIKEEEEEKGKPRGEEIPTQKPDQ
# UniProt P11541, 2-856 limits assumed: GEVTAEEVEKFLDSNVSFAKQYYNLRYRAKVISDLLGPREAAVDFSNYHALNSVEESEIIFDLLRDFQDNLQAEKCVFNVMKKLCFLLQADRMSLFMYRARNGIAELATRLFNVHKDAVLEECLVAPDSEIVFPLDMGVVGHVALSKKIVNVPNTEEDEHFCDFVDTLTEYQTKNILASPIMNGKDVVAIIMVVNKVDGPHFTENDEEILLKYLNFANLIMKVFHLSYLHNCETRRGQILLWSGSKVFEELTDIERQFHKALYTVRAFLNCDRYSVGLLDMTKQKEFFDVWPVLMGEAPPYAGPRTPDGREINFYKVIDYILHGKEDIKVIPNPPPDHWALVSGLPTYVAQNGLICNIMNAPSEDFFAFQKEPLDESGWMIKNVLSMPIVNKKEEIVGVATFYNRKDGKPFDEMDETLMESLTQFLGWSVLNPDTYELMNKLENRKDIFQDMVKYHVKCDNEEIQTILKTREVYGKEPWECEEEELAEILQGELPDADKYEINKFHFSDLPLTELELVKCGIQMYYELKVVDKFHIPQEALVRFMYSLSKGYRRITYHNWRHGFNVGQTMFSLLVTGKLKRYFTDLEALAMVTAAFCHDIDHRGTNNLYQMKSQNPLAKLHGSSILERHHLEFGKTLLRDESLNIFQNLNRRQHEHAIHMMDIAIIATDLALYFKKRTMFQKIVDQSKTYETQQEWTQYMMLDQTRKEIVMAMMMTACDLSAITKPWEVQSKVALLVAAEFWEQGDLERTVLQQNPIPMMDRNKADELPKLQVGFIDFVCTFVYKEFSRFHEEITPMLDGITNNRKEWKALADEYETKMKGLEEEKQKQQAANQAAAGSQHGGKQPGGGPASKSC
# UniProt P23439, 2-850 limits assumed: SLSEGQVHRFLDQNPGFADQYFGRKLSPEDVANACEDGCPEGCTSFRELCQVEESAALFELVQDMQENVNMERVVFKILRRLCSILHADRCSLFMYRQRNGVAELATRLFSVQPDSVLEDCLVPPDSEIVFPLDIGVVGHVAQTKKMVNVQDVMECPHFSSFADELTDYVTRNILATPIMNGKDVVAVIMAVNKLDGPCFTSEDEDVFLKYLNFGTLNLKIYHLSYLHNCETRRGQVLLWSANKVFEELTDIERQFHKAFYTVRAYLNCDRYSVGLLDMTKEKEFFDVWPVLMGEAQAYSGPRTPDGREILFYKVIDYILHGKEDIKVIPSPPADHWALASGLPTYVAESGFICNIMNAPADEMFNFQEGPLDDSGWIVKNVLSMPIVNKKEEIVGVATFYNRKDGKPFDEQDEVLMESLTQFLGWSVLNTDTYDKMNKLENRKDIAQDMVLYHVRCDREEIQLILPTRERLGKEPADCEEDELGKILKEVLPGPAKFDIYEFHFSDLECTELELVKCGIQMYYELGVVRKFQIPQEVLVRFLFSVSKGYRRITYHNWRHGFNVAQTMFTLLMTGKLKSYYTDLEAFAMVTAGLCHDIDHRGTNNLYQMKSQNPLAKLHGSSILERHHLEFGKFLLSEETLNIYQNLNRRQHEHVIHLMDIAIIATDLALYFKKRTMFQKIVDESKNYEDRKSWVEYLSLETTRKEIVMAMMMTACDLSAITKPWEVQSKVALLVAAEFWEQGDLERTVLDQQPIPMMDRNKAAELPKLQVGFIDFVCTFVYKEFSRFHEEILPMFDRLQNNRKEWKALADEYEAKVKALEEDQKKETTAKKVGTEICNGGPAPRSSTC
# Assays:
# PDE-1 = PDE-1 inhibition; assay type: biochemical; conditions: read-out: PDE-1 IC50
# PDE-3 = PDE-3 (UniProt Q14432); experiment: PDE-3 inhibition; assay type: biochemical; conditions: read-out: PDE-3 IC50
# PDE-4 human = PDE-4 human inhibition; assay type: biochemical; conditions: read-out: PDE-4 human IC50
# PDE5 = PDE5 (Homo sapiens, UniProt O76074); experiment: PDE-5 human inhibition; assay type: biochemical; conditions: read-out: PDE-5 human IC50
# PDE-6 bovine = PDE-6 bovine (Bos taurus, UniProt P11541+P23439); experiment: PDE-6 bovine inhibition; assay type: biochemical; conditions: read-out: PDE-6 bovine IC50
# Solubility = assay type: physicochemical
# Non-Spec Binding = assay type: in vitro ADME
# human serum components = experiment: Protein Binding
# Procedure: In general, protein binding is assessed by measuring the capacity of molecules of the invention to bind to one or more human serum components or mimics thereof. In one embodiment, suitable functional residues may be identified by screening of surfaces comprising such residues for their ability to resist adsorption of serum components, including, but not limited to serum proteins, and preferably human serum proteins. Candidate residues can be screened directly by attaching them to a solid support and testing the support for protein resistance. Alternatively, candidate residues are incorporated into, or linked to molecules of pharmaceutical interest. Such compounds may be synthesized on a solid support, or bound to a solid support after synthesis. In a non-limiting example of a direct binding assay, immobilized candidate functional residues or molecules incorporating such residues are tested for their ability to bind serum components. The serum components can be labeled with a signaling moiety for detection, or a labeled secondary reagent that binds to such serum components can be used.
# A direct binding analysis can also be preformed in liquid phase. For example, test compounds can be mixed with one or more serum components in liquid phase, and the unbound molecules determined.
# mouse 3T3 = experiment: Chronic Cytoxicity (mouse 3T3); assay type: cell-based
# Caco-2 = Caco-2 permeability
# Text: Several model systems are available, employing monolayers of various cell types, for evaluation of active transport of pharmaceutically active substances. For example, monolayers of Caco-2 intestinal epithelial cells can be used to evaluate active transport of substances between the intestine and the bloodstream. When plated on a surface which allows the flow of material from apical to basolateral and vice versa, such cells form a biological membrane which can be used to simulate physiological absorption and bioavailability. In another example, mouse brain capillary endothelial cell (MBEC) lines have been established to evaluate active transport in and out of the central nervous system. Another example of such cells is HT29 human colon carcinoma cells. Further, monolayers expressing particular transporter proteins can be established using transfected cells. For example, Sasaki et al (2002) J. Biol. Chem. 8:6497 used a double-transfected Madin-Darby canine kidney cell monolayer to study transport of organic anions.
# PAMPA permeability = assay type: in vitro ADME
# [1] = T1/2 in human liver microsomes; assay type: in vitro ADME
# [2] = T1/2 in rat liver microsomes; assay type: in vitro ADME
SMILES,IC50 (PDE-1),IC50 (PDE-3),IC50 (PDE-4 human),IC50 (PDE5),IC50 (PDE-6 bovine),Solubility (ug/mL) pH 2.7 (Solubility),Solubility (ug/mL) pH 7.4 (Solubility),Non-Spec Binding (%) (Non-Spec Binding),Protein Binding (%) (human serum components),GI50 (mouse 3T3),"LC50 (50% lethal concentration) (mouse 3T3; read-out: Chronic Cytoxicity (mouse 3T3) LC50, mouse 3T3)",Caco-2 (10^−6 cm/s) AtoB (Caco-2; AtoB),Caco-2 (10^−6 cm/s) BtoA (Caco-2; BtoA),PAMPA (10^−6 cm/s) Hex (PAMPA permeability; Hex),PAMPA (10^−6 cm/s) Lec (PAMPA permeability; Lec),T1/2 (min) liver microsomes human [1],T1/2 (min) liver microsomes rat [2]
CCCc1nc(C)c2c(=O)[nH]c(-c3cc(S(=O)(=O)N4CCN(C(=O)CN5CCOCC5)CC4)ccc3OCC)nn12,9.3 nM,4000 nM,4300 nM,0.2 nM,1.3 nM,>124.4 ug/mL,>116.7 ug/mL,6.6%,84.5%,–,–,–,–,–,–,–,–
CCCc1nc(C)c2c(=O)[nH]c(-c3cc(S(=O)(=O)N(C)CCOC)ccc3OCC)nn12,17.2 nM,1290 nM,1840 nM,0.163 nM,1.97 nM,>50 ug/mL,>50 ug/mL,23.64%,97.4%,100000 nM,> 100000 nM,51.85 10^−6 cm/s,56.25 10^−6 cm/s,78.19 10^−6 cm/s,7.14 10^−6 cm/s,19.3 min,12.34 min
